The list is not random: actives were taken first. Their share in the collection is about 16%.
TDP1 block = blocks human tyrosyl-DNA phosphodiesterase 1; Q9NUW8; recombinant TDP1, AlphaScreen DNA substrate cleavage; Potency, µM (highest dose often 130 µM), inactives show top-dose activity change, negative = inhibition, actives largely listed as inhibitors; 350,000 tested, 0.28% active; AID 485290; note: potency is the fitted concentration of half-maximal effect; % is set by controls: 0 for no effect and ±100 for the full control effect; nearly all actives have a fitted effect of over 40% in size
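Tdp1 1 nM final; 15 min RT w/ cpd; substrate 15 nM, 5 min; beads 10 ug/ml, 10 min; AlphaScreen read. Neg ctrl: no enzyme.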
TDP1 cell CPT = growth inhibition of DT40 Tdp1-/-;hTDP1 cells with camptothecin (screen for TDP1 inhibitors) | chicken DT40 Tdp1-/-;hTDP1 cells + 20 nM CPT, ATP luminescence, 48 h | Potency, µM (top dose mostly 46.2 µM), for the others: at the top dose activity change, negative = growth inhibition, actives largely listed as inhibitors | 420,000 tested, 12% active; note: potency is the fitted concentration of half-maximal effect; % is set by controls: 0 for no effect and ±100 for the full control effect; nearly all actives have a fitted effect of over 55% in size
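Chicken DT40 Tdp1-/- cells complemented with human TDP1, 400 cells/well, exposed to compounds plus 20 nM camptothecin for at least 48 h at 37 C; viability read as ATP content by CellTiter-Glo luminescence.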
uPA generation = cell surface uPA generation inhibition. cell surface uPA generation assay, qHTS. Potency, µM (top dose mostly 38.3 µM), for the others: at the highest dose activity change, negative = inhibition, most hits filed as inhibitors. 330,000 tested, 0.31% active. AID 540303; active = well fitted inhibition curve with a large enough effect; inconclusive = small, poorly fitted or top-dose-only effect; inactive = no such curve, though single readings can be large or run the other way; tested in mouse RAW 264.7 cells; note: potency is the fitted concentration of half-maximal effect; % is set by controls: 0 for no effect and ±100 for the full control effect; nearly all actives have a fitted effect of over 55% in size
TDP1 cell noCPT = qHTS for Inhibitors of human tyrosyl-DNA phosphodiesterase 1 (TDP1): qHTS in cells in absence of CPT | DT40 Tdp1-/- hTDP1 cells, no CPT, ATP luminescence, 48 h | 420,000 tested, 15% active | Potency, µM (doses to about 46.2 µM), for inactives: at the top dose activity change, negative = growth inhibition, hits mostly inhibitors; note: potency is the fitted concentration of half-maximal effect; % is set by controls: 0 for no effect and ±100 for the full control effect; nearly all actives have a fitted effect of over 55% in size
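Compound effects on proliferation are scored in DT40 Tdp1-/-;hTDP1 cells in the absence of CPT. ATP levels (CellTiter-Glo luminescence) are recorded after a ≥48 hr, 37 °C incubation.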
miR-21 reporter = raises the signal of a miR-21 reporter | HeLa miR-21 FLuc reporter, luciferase, 48 h | Potency, µM (highest dose often 38.3 µM), inactives show at the highest dose reporter change, positive = more light | 340,000 tested, under 10 active | AID 2288; active = well fitted rising curve with a large enough effect; inconclusive = small, poorly fitted or top-dose-only effect; inactive = no such curve, though single readings can be large or run the other way;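 note: % of control where 0% means no effect; miR-21 action dims this reporter so a rising signal means less miR-21 action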
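HeLa cells stably expressing CMV-driven firefly luciferase with a downstream miR-21 binding sequence, endogenously expressing miR-21, were treated with titrations (up to about 40uM final) for 48 hours at 37 degree Celsius. Luciferase luminescence was read after lysis.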
Starred values were filed as active, the others as inactive; ? = inconclusive; . = not tested or not shown. Unless noted, calls come from the whole dose curve; as a rule, active = well fitted curve in the direction sought with a large enough effect; inconclusive = small, poorly fitted or top-dose-only effect, or another doubt; inactive = no such curve, though single readings can be large; an effect the other way counts as inactive or inconclusive.

1. O=C(c1cccc(N2CCNC2=O)c1)N1CCCC(Nc2cccc(F)c2)C1 (stereo not given)
2. O=C(Cc1ccc(N2CCNC2=O)cc1)N1CCCC(Nc2cccc(F)c2)C1 (stereo not given)
3. O=C(Cc1ccc(N2CCNC2=O)cc1)N1CCCC(Nc2ccc(F)c(F)c2)C1 (stereo not given)
4. O=C(OCCOCCOC(=O)Oc1ccccc1)Oc1ccccc1
5. O=C(c1ccc([N+](=O)[O-])s1)N1CCc2ccccc2C1
6. CN1[C@@H]2CCC[C@H]1CC(NC(=O)c1nn(C)c3ccccc13)C2 (stereo not given in full)
7. c1ccc(CC2CCN(C3=Nc4cccc5cccc3c45)CC2)cc1
8. FC(F)(F)c1ccc(C2[C@H]3CN(Cc4ccc(-c5ccccc5)cc4)[C@H](c4ccccc4)C34CC2(c2ccccc2)C4)cc1 (stereo not given in full)
9. COC(=O)c1ccc(C23CC4(C2)[C@H](CN(Cc2cccnc2)[C@@H]4c2ccccc2)C3c2ccccc2)cc1 (stereo not given in full)
10. CN1C[C@@H]2C(c3ccc(C(F)(F)F)cc3)C3(c4ccccc4)CC2(C3)[C@H]1c1ccccc1 (stereo not given in full)

Screen / compound no. | 1 | 2 | 3 | 4 | 5 | 6 | 7 | 8 | 9 | 10
TDP1 block | 5% | 4% | 5% | . | -3% | . | 7% | 8% | 11% | 7%
TDP1 cell CPT | -16% | 2.9µM* | 2.3µM* | 4% | ? | -7% | ? | ? | 23µM* | ?
uPA generation | -2% | 1.4µM* | -16% | 6% | -6% | -7% | 15% | 10% | -2% | -74%
TDP1 cell noCPT | -12% | 2.1µM* | 3.7µM* | 18% | ? | -10% | 9.2µM* | ? | 23µM* | 16µM*
miR-21 reporter | -5% | 18% | 16% | . | 6% | . | -7% | -1% | 14% | -1%

11. COC(=O)c1ccc(C23CC4(C2)[C@H](CN(Cc2ccc(-c5ccccc5)cc2)[C@@H]4c2ccccc2)C3c2ccc(C(F)(F)F)cc2)cc1 (stereo not given in full)
12. CN1C[C@@H]2C(c3ccccc3)C3(c4cccnc4)CC2(C3)[C@H]1c1ccccc1 (stereo not given in full)
13. N#Cc1ccc(C23CC4(C2)[C@H](CN(Cc2ccc(-c5ccccc5)cc2)[C@@H]4c2ccccc2)C3c2ccc(C(F)(F)F)cc2)cc1 (stereo not given in full)
14. COC(=O)c1ccc(C23CC4(C2)[C@H](CN(Cc2cccnc2)[C@@H]4c2ccccc2)C3c2ccc(C(F)(F)F)cc2)cc1 (stereo not given in full)
15. COC(=O)c1ccc(C23CC4(C2)[C@H](CN(Cc2ccc(-c5ccccc5)cc2)[C@@H]4c2ccccc2)C3c2ccc(Cl)nc2)cc1 (stereo not given in full)
16. O=[N+]([O-])c1cccc(S(=O)(=O)NCCCn2ccnc2)c1
17. CN1CCN(C2CCCCCC2)CC1
18. CCC(C)(C)NC(=O)C(c1ccc(OC)cc1)N(C(=O)CCC(=O)Nc1cc(C)on1)c1ccccc1F (stereo not given)
19. CCc1c(C)nc(N2CCN(c3ccc(Cl)cc3)CC2)[nH]c1=O
20. C[C@H](NC(N)=O)C(=O)OCC(=O)Nc1ccc(OC(F)F)cc1

Screen / compound no. | 11 | 12 | 13 | 14 | 15 | 16 | 17 | 18 | 19 | 20
TDP1 block | 2% | 7% | 5% | 12% | 8% | . | 2% | 9% | . | 3%
TDP1 cell CPT | ? | -26% | 16µM* | 23µM* | -1% | -3% | 9% | -5% | ? | 0%
uPA generation | 5% | 3% | 4% | -16% | 3% | -1% | . | 0% | -3% | 6%
TDP1 cell noCPT | ? | -29% | ? | 13µM* | -13% | -18% | 1% | -27% | ? | 2%
miR-21 reporter | -7% | 4% | 0% | 24% | -7% | -2% | -11% | -1% | 0% | 1%

21. N#Cc1ccc(C23CC4(C2)[C@H](CN(Cc2cccnc2)[C@@H]4c2ccccc2)C3c2ccccc2)cc1 (stereo not given in full)
22. COC(=O)c1cccc(C23CC4(C2)[C@H](CN(Cc2ccc(C(F)(F)F)cc2)[C@@H]4c2ccccc2)C3c2ccccc2)c1 (stereo not given in full)
23. FC(F)(F)c1ccc(C2[C@H]3CN(Cc4ccc(-c5ccccc5)cc4)[C@H](c4ccccc4)C34CC2(c2cccnc2)C4)cc1 (stereo not given in full)
24. COC(=O)c1cccc(C23CC4(C2)[C@H](CN(Cc2ccc(-c5ccccc5)cc2)[C@@H]4c2ccccc2)C3c2ccccc2)c1 (stereo not given in full)
25. COC(=O)c1ccc(C23CC4(C2)[C@H](CN(CC2CCCCC2)[C@@H]4c2ccccc2)C3c2ccccc2)cc1 (stereo not given in full)
26. FC(F)(F)c1ccc(C2[C@H]3CN(Cc4cccnc4)[C@H](c4ccccc4)C34CC2(c2cccnc2)C4)cc1 (stereo not given in full)
27. Cc1nc(N2CCCC2)c2c(C(=O)Nc3cccc(Cl)c3)c(C)oc2n1
28. CCNC(=O)NC(=O)C(C)Sc1nc2ccccc2n1CC(C)C (stereo not given)
29. CC(C)Cn1c(SCC(=O)N2CCN(S(=O)(=O)c3ccccc3)CC2)nc2ccccc21
30. CCn1c(N2CCN(S(=O)(=O)c3ccccc3)CC2)nc2ccccc21

Screen / compound no. | 21 | 22 | 23 | 24 | 25 | 26 | 27 | 28 | 29 | 30
TDP1 block | 13% | 12% | 5% | 10% | 10% | 12% | 2% | -1% | 4% | .
TDP1 cell CPT | 9.2µM* | 29µM* | ? | -15% | 26µM* | 23µM* | -23% | 18µM* | 18µM* | ?
uPA generation | ? | 6% | 6% | 6% | 6% | ? | . | 3% | 10% | 0%
TDP1 cell noCPT | 7.3µM* | 16µM* | ? | ? | ? | 21µM* | -23% | 16µM* | ? | 18µM*
miR-21 reporter | 13% | 2% | 7% | 0% | -6% | ? | -5% | 10% | 29% | ?

From compound 21 up to 23, copied from above:
21. N#Cc1ccc(C23CC4(C2)[C@H](CN(Cc2cccnc2)[C@@H]4c2ccccc2)C3c2ccccc2)cc1 (stereo not given in full)
22. COC(=O)c1cccc(C23CC4(C2)[C@H](CN(Cc2ccc(C(F)(F)F)cc2)[C@@H]4c2ccccc2)C3c2ccccc2)c1 (stereo not given in full)
23. FC(F)(F)c1ccc(C2[C@H]3CN(Cc4ccc(-c5ccccc5)cc4)[C@H](c4ccccc4)C34CC2(c2cccnc2)C4)cc1 (stereo not given in full)

Screen / compound no. | 21 | 22 | 23
TDP1 block | 13% | 12% | 5%
TDP1 cell CPT | 9.2µM* | 29µM* | ?
uPA generation | ? | 6% | 6%
TDP1 cell noCPT | 7.3µM* | 16µM* | ?
miR-21 reporter | 13% | 2% | 7%

(more compounds)
31. CC(C)Cn1c(SCC(=O)NC(=O)NC2CCCC2)nc2ccccc21
32. NS(=O)(=O)c1ccc(NC(=O)COC(=O)Cc2c[nH]c3ccccc23)cc1
33. O=C(CSc1nc2ccccc2c(=O)[nH]1)N1CCN(S(=O)(=O)c2ccccc2)CC1
34. O=C(CSc1nc(-c2ccccc2)c(-c2ccccc2)[nH]1)N1CCN(S(=O)(=O)c2ccccc2)CC1
35. COC(=O)Cc1ccc(NC(=O)c2ccc(C)c(C)c2)cc1

Screen / compound no. | 31 | 32 | 33 | 34 | 35
TDP1 block | 0% | 2% | -1% | 7% | 5%
TDP1 cell CPT | 26µM* | -1% | ? | 18µM* | -20%
uPA generation | 11% | 5% | . | -4% | -1%
TDP1 cell noCPT | 16µM* | -15% | -18% | 18µM* | -5%
miR-21 reporter | 13% | . | -2% | 2% | -6%
